# Experimental melting point values from OPERA 2.9

The melting point is given in degrees Celsius.
The databases behind each value are named after "via".

| MP (°C) | compound | via |
|---|---|---|
| 99 | CCn1cn[nH]c1=S | OCHEM |
| 199 | CN(C)c1ccc(C(=O)O)cc1[N+](=O)[O-] | OCHEM |
| 167 | NC(=O)c1cnc(Cl)cn1 | OCHEM |
| 181 | O=C(Cc1nc2ccccc2[nH]1)c1ccccc1 | OCHEM |
| 196 | CC(C)(C)N(NC(=O)c1ccccc1)C(=O)c1ccccc1Br | OCHEM |
| -28 | CCCCC(CC)COC(=O)/C=C\C(=O)O (stereo partly drawn) | eChemPortal |
| 138 | O=C(O)c1csc(Br)c1 | OCHEM |
| 71 | CCOC(=O)c1c(C2CC2)csc1N | OCHEM |
| 112 | O=C(O)CCOc1ccccc1Br | OCHEM |
| 76 | O=[N+]([O-])c1ccc(S(=O)(=O)Cl)c(Cl)c1 | OCHEM |
| 80 | O=C(NCc1ccccc1)c1ccccc1O | OCHEM |
| 83 | Nc1ncc(Cc2cccc(F)c2)s1 | OCHEM |
| 120 | CCN(CC)S(=O)(=O)c1ccc(NC)c(N)c1 | OCHEM |
| -37.7 | CCC(F)(F)C(F)(F)C(F)(F)C(F)(F)C(F)(F)C(F)(F)C(F)(F)C(F)(F)F | ChemicalBook |
| 119 | COC(=O)C(=O)CC(=O)c1ccc(Cl)cc1Cl | OCHEM |
| 45 | CC(C)c1ccc(C(=O)CCl)cc1 | OCHEM |
| 179 | Cc1cc(C)n2c(C(=O)O)nnc2n1 | OCHEM |
| 171 | CC1(c2ccccc2)NC(=O)N(CC(=O)O)C1=O (centres undefined) | OCHEM |
| 157 | CC(C)c1nc(=S)[nH][nH]1 | OCHEM |
| 94 | CC(C)N1C(=O)NC(=O)C1=O | OCHEM |
| 266 | O=c1[nH]c(CCl)nc2sc3c(c12)CCCC3 | OCHEM |
| 218 | O=C(CC(=O)Nc1ccc(F)cc1)Nc1ccc(F)cc1 | OCHEM |
| 163 | O=c1[nH]c(CN2CCOCC2)nc2sc3c(c12)CCCC3 | OCHEM |
| 56 | Nc1n[nH]c(-c2ccccc2)n1 | OCHEM |
| 224 | O=C(O)c1cccnc1Sc1ccc(Br)cc1 | OCHEM |
| 53 | COC(=O)Cc1c(C)n[nH]c1C | OCHEM |
| 133 | O=C(Cc1ccc(Cl)cc1)c1ccccc1 | OCHEM |
| -62 | O=CC1CO1 (centres undefined) | OCHEM, PubChem |
| 183.5 | CC(=O)OCC(=O)[C@@]1(O)CC[C@H]2[C@@H]3CCC4=CC(=O)C=C[C@]4(C)[C@@]34O[C@H]4C[C@@]21C | eChemPortal |
| 105 | COc1ccc(OCCC(=O)O)cc1 | OCHEM |
| 170 | O=C(O)CNc1ncccn1 | OCHEM |
| 217 | Cn1c(=O)[nH][nH]c1=S | OCHEM |
| 160 | O=C1C=CC(=NC2=NNNS2)C=C1 | OCHEM |
| 159 | Cn1c(Cc2ccccc2)n[nH]c1=S | OCHEM |
| 119 | Cc1ccc(S(N)(=O)=O)s1 | OCHEM |
| 211 | O=c1[nH]c2ccc(S(=O)(=O)Cl)cc2[nH]1 | OCHEM |
| 140 | CC(=O)c1ccc(S(=O)(=O)N2CCCCC2)cc1 | OCHEM |
| 153 | O=C(O)CCc1nc(-c2ccc(Cl)cc2)no1 | OCHEM |
| 92 | ClCc1nnc(-c2ccccc2Cl)o1 | OCHEM |
| 50 | CCOC(=O)c1ccc(S(=O)(=O)Cl)cc1 | OCHEM |
| 150 | Cc1ccc(S(=O)(=O)N2CCCC(C(=O)O)C2)cc1 (centres undefined) | OCHEM |
| 182 | COc1ccccc1C(=O)N(NC(=O)c1ccccc1)C(C)(C)C | OCHEM |
| 174 | O=C(O)c1ccc2c(c1)CCC2 | OCHEM |
| 140 | Nc1sc2c(c1C(=O)c1ccc(Cl)cc1)CCCC2 | OCHEM |
| 130 | Cc1nc2ccc(N)cc2o1 | OCHEM |
| 146 | Cc1c(N=C=S)c(=O)n(-c2ccccc2)n1C | OCHEM |
| 78 | CCC(C)c1ccc(-c2csc(N)n2)cc1 (centres undefined) | OCHEM |
| 294 | O=C(O)c1cccc2c1C(=O)c1ccccc1C2=O | OCHEM |

A selection of 8 entries from above:

compound	MP (°C)	via
Nc1sc2c(c1C(=O)c1ccc(Cl)cc1)CCCC2	140	OCHEM
CCOC(=O)c1ccc(S(=O)(=O)Cl)cc1	50	OCHEM
O=C(O)CNc1ncccn1	170	OCHEM
O=C(Cc1nc2ccccc2[nH]1)c1ccccc1	181	OCHEM
CC1(c2ccccc2)NC(=O)N(CC(=O)O)C1=O (centres undefined)	171	OCHEM
Nc1ncc(Cc2cccc(F)c2)s1	83	OCHEM
CC(C)c1ccc(C(=O)CCl)cc1	45	OCHEM
CC(C)N1C(=O)NC(=O)C1=O	94	OCHEM

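OPERA's authors assembled the values from existing databases and did not measure them anew. One number stands for a compound and property, with no spread given. Method and conditions are not stated for these values. Where a salt, mixture or single isomer is drawn, the source does not say that exactly this form was tested. Unmarked limits or estimates from the upstream databases cannot be ruled out.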

Values as listed in the OPERA 2.9 repository of K. Mansouri.